Results: patent US9409882B2, “Pyridine derivatives” (Hoffmann-La Roche Inc., priority 2012, dated 2016)

Sequences of proteins named here, by UniProt entry; tags and fusion partners are left off. Residues count along the entry.
UniProt P07711, 114-333: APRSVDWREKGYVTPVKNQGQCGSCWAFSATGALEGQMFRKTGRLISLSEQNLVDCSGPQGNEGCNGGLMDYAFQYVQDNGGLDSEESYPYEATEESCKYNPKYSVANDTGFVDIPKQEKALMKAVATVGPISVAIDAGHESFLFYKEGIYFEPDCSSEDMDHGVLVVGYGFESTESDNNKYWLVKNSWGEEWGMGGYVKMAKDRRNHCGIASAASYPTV
UniProt P25774, 115-331: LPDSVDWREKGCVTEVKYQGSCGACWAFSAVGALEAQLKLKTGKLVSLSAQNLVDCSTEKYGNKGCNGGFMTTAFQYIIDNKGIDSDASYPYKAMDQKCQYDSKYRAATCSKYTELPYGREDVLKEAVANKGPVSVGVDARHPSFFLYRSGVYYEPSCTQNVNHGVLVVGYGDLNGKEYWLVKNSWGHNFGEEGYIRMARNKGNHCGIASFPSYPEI

Legend:
human Cat L = human Cat L (Homo sapiens (Human), UniProt P07711); assay: Cathepsin enzyme inhibition assay (fluorogenic peptide substrate), human Cat L; assay type: biochemical; conditions: human Cat L 1 nM, substrate Z-Val-Val-Arg-AMC 20 μM, pH 6.5
Method: (§1) Cathepsin Enzyme Inhibition Assay
(§2) Enzyme activity is measured by observing the increase in fluorescence intensity caused by cleavage of a peptide substrate containing a fluorophore whose emission is quenched in the intact peptide.
(§3) Assay buffer: 100 mM potassium phosphate pH 6.5, EDTA-Na 5 mM, Triton X-100 0.001%, DTT 5 mM.
(§4) Enzymes (all at 1 nM): human and mouse Cathepsin S, Cat K, Cat B, Cat L.
(§5) Substrate (20 μM): Z-Val-Val-Arg-AMC, except for Cat K which uses Z-Leu-Arg-AMC (both from Bachem).
(§6) AMC=7-Amino-4-Methyl-Coumarin.
(§7) Excitation 360 nm, Emission 465 nm.
(§8) Enzyme is added to the substance dilutions in 96-well microtitre plates and the reaction is started with substrate. Fluorescence emission is measured over 20 minutes, during which time a linear increase is observed in the absence of inhibitor. IC50 are calculated by standard methods.
(§9) Inhibition of human Cat S, mouse Cat S, human Cat K, human Cat B, human Cat L and mouse Cat L have been measured separately. The results obtained for human Cat S and L for representative compounds of the invention are expressed in the following table in μM.

human Cathepsin S = human Cathepsin S (Homo sapiens (Human), UniProt P25774); assay: Cathepsin enzyme inhibition assay (fluorogenic peptide substrate), human Cat S; assay type: biochemical; conditions: human Cat S 1 nM, substrate Z-Val-Val-Arg-AMC 20 μM, pH 6.5
Method: as §1, §2, §3, §4, §5, §6, §7, §8, §9

Structure (SMILES) | IC50 (human Cat L) [µM] | IC50 (human Cathepsin S) [nM]
N#CC1(NC(=O)[C@@H]2C[C@@H](Sc3ncccc3Cl)CN2C(=O)C2(c3ncc(Cl)cc3F)CC2)CC1 [Example 10, (2S,4R)-1-[1-(5-Chloro-3-fluoro-pyridin-2-yl)-cyclopropanecarbonyl]-4-(3-chloro-pyridin-2-ylsulfanyl)-pyrrolidine-2-carboxylic acid (1-cyano-cyclopropyl)-amide] | 15.9 | 
N#CC1(NC(=O)[C@@H]2C[C@@H](S(=O)(=O)c3cccc(-c4ccc(F)cc4)c3)CN2C(=O)C2(c3ncc(Cl)cc3F)CC2)CC1 [Example 13, (2S,4R)-1-[1-(5-Chloro-3-fluoro-pyridin-2-yl)-cyclopropanecarbonyl]-4-(4′-fluorobiphenyl-3-sulfonyl)-pyrrolidine-2-carboxylic acid (1-cyano-cyclopropyl)-amide] |  | 0.77
N#CC1(NC(=O)[C@@H]2C[C@@H](S(=O)(=O)c3ncccc3Cl)CN2C(=O)C2(c3ncc(Cl)cc3F)CC2)CC1 [Example 14, (2S,4R)-1-[1-(5-Chloro-3-fluoro-pyridin-2-yl)-cyclopropanecarbonyl]-4-(3-chloropyridine-2-sulfonyl)-pyrrolidine-2-carboxylic acid (1-cyano-cyclopropyl)-amide] |  | 2.84
Cc1cccc(S[C@@H]2C[C@@H](C(=O)NC3(C#N)CC3)N(C(=O)C3(c4ncc(Cl)cc4F)CC3)C2)n1 [Example 19, (2S,4R)-1-[1-(5-Chloro-3-fluoro-pyridin-2-yl)-cyclopropanecarbonyl]-4-(6-methyl-pyridin-2-ylsulfanyl)-pyrrolidine-2-carboxylic acid (1-cyano-cyclopropyl)-amide] |  | 127
N#CC1(NC(=O)[C@@H]2C[C@@H](Sc3cc(C(F)(F)F)ccc3Cl)CN2C(=O)C2(c3ncc(Cl)cc3F)CC2)CC1 [Example 26, (2S,4R)-1-[1-(5-Chloro-3-fluoro-pyridin-2-yl)-cyclopropanecarbonyl]-4-(2-chloro-5-trifluoromethyl-phenylsulfanyl)-pyrrolidine-2-carboxylic acid (1-cyano-cyclopropyl)-amide] |  | 3.47
Cn1cc(-c2ccc(S(=O)(=O)[C@@H]3C[C@@H](C(=O)NC4(C#N)CC4)N(C(=O)C4(c5ncc(Cl)cc5Cl)CC4)C3)c(Cl)c2)cn1 [Example 40, (2S,4R)-4-[2-Chloro-4-(1-methyl-1H-pyrazol-4-yl)-benzenesulfonyl]-1-[1-(3,5-dichloro-pyridin-2-yl)-cyclopropanecarbonyl]-pyrrolidine-2-carboxylic acid (1-cyano-cyclopropyl)-amide] | 0.111 | 
